Molecular target: T1, HUαα-MsyB complex (E. coli, UniProt P0ACF0 1-90; P25738 1-124)
T1 sequence (looked up) 1: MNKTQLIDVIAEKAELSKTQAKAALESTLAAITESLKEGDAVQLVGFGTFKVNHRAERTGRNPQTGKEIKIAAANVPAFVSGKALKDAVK
T1 sequence (looked up) 2: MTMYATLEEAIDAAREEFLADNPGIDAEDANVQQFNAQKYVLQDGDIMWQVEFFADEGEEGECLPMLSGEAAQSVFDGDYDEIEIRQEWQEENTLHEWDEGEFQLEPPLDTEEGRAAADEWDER
Test: SEC

B1: β-clamp (β subunit of DNA polymerase) (natural protein, E. coli, UniProt P0A988 1-366, looked up)
chain: MKFTVEREHLLKPLQQVSGPLGGRPTLPILGNLLLQVADGTLSLTGTDLEMEMVARVALVQPHEPGATTVPARKFFDICRGLPEGAEIAVQLEGERMLVRSGRSRFSLSTLPAADFPNLDDWQSEVEFTLPQATMKRLIEATQFSMAHQDVRYYLNGMLFETEGEELRTVATDGHRLAVCSMPIGQSLPSHSVIVPRKGVIELMRMLDGGDNPLRVQIGSNNIRAHVGDFIFTSKLVDGRFPDYRRVLPKNPDKHLEAGCDLLKQAFARAAILSNEKFRGVRLYVSENQLKITANNPEQEEAEEILDVTYSGAEMEIGFNVSYVLDVLNALKCENVRMMLTDSVSSVQIEDAASQSAAYVVMPMRL
  stoichiometry N: 1

Source: publication doi:10.1101/2025.02.25.640118 (bioRxiv, 2025)
